PubChem BioAssay (EPA / NIEHS)
The list shows a part of the results, in another mix than the full data. Active and inactive are the calls of the source. How the source made its calls: active means hit-call score of the fitted dose curve at least 0.9, where 1 is the maximum; inactive means score below 0.9.

Protein sequences, listed by entry. Tags and fused reporters are not part of them.
UniProt P19838, whole entry: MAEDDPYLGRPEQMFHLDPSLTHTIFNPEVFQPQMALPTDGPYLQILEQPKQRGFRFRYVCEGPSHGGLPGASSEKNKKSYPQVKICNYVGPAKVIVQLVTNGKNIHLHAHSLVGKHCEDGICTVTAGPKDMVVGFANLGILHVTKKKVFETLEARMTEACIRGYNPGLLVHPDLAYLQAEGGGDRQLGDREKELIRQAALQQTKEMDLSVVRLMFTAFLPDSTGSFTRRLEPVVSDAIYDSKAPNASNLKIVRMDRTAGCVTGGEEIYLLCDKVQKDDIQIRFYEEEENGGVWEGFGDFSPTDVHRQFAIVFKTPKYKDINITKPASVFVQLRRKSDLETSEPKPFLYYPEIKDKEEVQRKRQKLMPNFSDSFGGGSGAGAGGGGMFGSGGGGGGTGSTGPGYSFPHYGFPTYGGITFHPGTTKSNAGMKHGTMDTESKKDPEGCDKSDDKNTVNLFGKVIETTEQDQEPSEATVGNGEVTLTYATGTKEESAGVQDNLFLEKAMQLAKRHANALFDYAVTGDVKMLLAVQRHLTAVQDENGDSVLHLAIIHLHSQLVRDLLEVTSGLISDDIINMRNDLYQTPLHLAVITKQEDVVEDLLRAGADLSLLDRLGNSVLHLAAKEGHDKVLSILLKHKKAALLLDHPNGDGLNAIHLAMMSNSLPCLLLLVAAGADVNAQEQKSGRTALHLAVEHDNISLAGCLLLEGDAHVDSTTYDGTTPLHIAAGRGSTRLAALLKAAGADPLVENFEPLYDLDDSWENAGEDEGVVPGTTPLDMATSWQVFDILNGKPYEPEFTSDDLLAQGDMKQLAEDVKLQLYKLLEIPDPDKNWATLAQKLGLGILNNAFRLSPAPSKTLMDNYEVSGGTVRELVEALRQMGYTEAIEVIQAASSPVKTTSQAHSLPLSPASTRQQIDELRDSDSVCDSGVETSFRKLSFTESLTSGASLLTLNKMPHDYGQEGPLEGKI

Columns and labels:
Details in all cases: actives raise or lower the signal; mRNA level, 48 h
[1] = read-out: HGF (gene 3082); assay: LTEA_HepaRG_HGF: Life Technologies and Expression Analysis (LTEA) Assay for Hepatocyte Growth Facto (HGF) using HepaRG (AID 2283505)
In short: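 Gain or loss of HGF mRNA in human HepaRG liver cells after 48 h chemical exposure; eight concentrations up to 100 uM with 0.5% DMSO vehicle, quantified by TaqMan qRT-PCR.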

[2] = read-out: Insulin Like Growth Factor 1 (IGF1), IGF1 (gene 3479); assay: LTEA_HepaRG_IGF1: Life Technologies and Expression Analysis (LTEA) Assay for Insulin Like Growth Factor 1 (IGF1) using HepaRG (AID 2283506)
In short: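 Differentiated human HepaRG cells were dosed for 48 h in serum-free induction medium with 0.5% DMSO, eight half-log concentrations up to 100 uM, in duplicate. IGF1 mRNA was quantified by qRT-PCR normalized to ACTB, GAPDH, POLR2A; bidirectional fitting versus DMSO.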

[3] = read-out: Intercellular Adhesion Molecule 1 (ICAM1), ICAM1 (gene 3383); assay: LTEA_HepaRG_ICAM1: Life Technologies and Expression Analysis (LTEA) Assay for Intercellular Adhesion Molecule 1 (ICAM1) using HepaRG (AID 2283507)
In short: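 Gain or loss of transcript in HepaRG hepatic cells is quantified by qRT-PCR after 48 h chemical exposure (up to 100 uM, half-log steps), with DMSO as baseline.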

[4] = read-out: Insulin-like growth factor-binding protein 1 (IGFBP1), IGFBP1 (gene 3484); assay: LTEA_HepaRG_IGFBP1: Life Technologies and Expression Analysis (LTEA) Assay for Insulin-like growth factor-binding protein 1 (IGFBP1) using HepaRG (AID 2283508)
In short: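 mRNA induction or loss was quantified by qRT-PCR after 48 h chemical exposure of human HepaRG cells, with 0.5% DMSO as vehicle and baseline. Concentration-response over eight points up to 100 uM.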

[5] = read-out: Interleukin 6 (IL6), IL6 (gene 3569); assay: LTEA_HepaRG_IL6: Life Technologies and Expression Analysis (LTEA) Assay for Interleukin 6 (IL6) using HepaRG (AID 2283509)
In short: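 HepaRG cells exposed in duplicate for 48 h to eight half-log concentrations, top 100 uM, in 0.5% DMSO serum-free induction medium. mRNA measured by qRT-PCR, normalized to ACTB, GAPDH and POLR2A. Bidirectional fit versus DMSO.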

[6] = read-out: Interleukin 6 Receptor (IL6R), IL6R (gene 3570); assay: LTEA_HepaRG_IL6R: Life Technologies and Expression Analysis (LTEA) Assay for Interleukin 6 Receptor (IL6R) using HepaRG (AID 2283510)
In short: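 Differentiated human HepaRG cells, plated 48 h then switched to serum-free induction medium, were dosed in duplicate for 48 h at eight half-log concentrations up to 100 uM in 0.5% DMSO. IL6R mRNA quantified by qRT-PCR, normalized to ACTB/GAPDH/POLR2A; bidirectional fit versus DMSO.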

[7] = read-out: Potassium channel subfamily K member 1 (KCNK1), KCNK1 (gene 3775); assay: LTEA_HepaRG_KCNK1: Life Technologies and Expression Analysis (LTEA) Assay for Potassium channel subfamily K member 1 (KCNK1) using HepaRG (AID 2283511)
In short: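 Differentiated HepaRG cells, 48 h exposure in serum-free induction medium with 0.5% DMSO; 8 concentrations, half-log from 100 uM, duplicate. KCNK1 mRNA by qRT-PCR, normalized to ACTB, GAPDH, POLR2A; bidirectional fit vs DMSO.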

[8] = read-out: Keratin 19 (KRT19), KRT19 (gene 3880); assay: LTEA_HepaRG_KRT19: Life Technologies and Expression Analysis (LTEA) Assay for Keratin 19 (KRT19) using HepaRG (AID 2283512)
In short: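 Gene-expression endpoint in the human liver line HepaRG after 48 h exposure to up to 100 uM test chemical with 0.5% DMSO vehicle; KRT19 mRNA by qRT-PCR, analyzed bidirectionally versus DMSO.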

[9] = read-out: JUN Transcription Factor, JUN (gene 3725); assay: LTEA_HepaRG_JUN: Life Technologies and Expression Analysis (LTEA) Assay for JUN Transcription Factor using HepaRG (AID 2283513)
In short: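 Differentiated HepaRG cells were exposed to chemicals for 48 h in serum-free induction medium, 8 concentrations from 100 uM in half-log steps, 0.5% DMSO vehicle, in duplicate. JUN mRNA was quantified by TaqMan qRT-PCR, normalized to ACTB, GAPDH, POLR2A.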

[10] = read-out: Lipase C (LIPC), LIPC (gene 3990); assay: LTEA_HepaRG_LIPC: Life Technologies and Expression Analysis (LTEA) Assay for Lipase C (LIPC) using HepaRG (AID 2283514)
In short: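 HepaRG cells, 48 h after plating, treated in duplicate for 48 h in serum-free induction medium over 8 half-log concentrations from 100 uM, 0.5% DMSO. LIPC mRNA by TaqMan qRT-PCR normalized to ACTB/GAPDH/POLR2A; bidirectional fit versus DMSO.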

[11] = read-out: Lipoprotein lipase (LPL), LPL (gene 4023); assay: LTEA_HepaRG_LPL: Life Technologies and Expression Analysis (LTEA) Assay for Lipoprotein lipase (LPL) using HepaRG (AID 2283515)
In short: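 Differentiated HepaRG cells, plated 48 h, then exposed 48 h in serum-free induction medium to 8 concentrations (top 100 uM, half-log steps) in 0.5% DMSO, duplicate. LPL mRNA measured by qRT-PCR, normalized to ACTB, GAPDH and POLR2A.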

[12] = read-out: MicroRNA 122 (MIR122), gene 406906; assay: LTEA_HepaRG_MIR122: Life Technologies and Expression Analysis (LTEA) Assay for MicroRNA 122 (MIR122) using HepaRG (AID 2283516); further: the transcript read is the microRNA miR-122
In short: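 Differentiated human HepaRG cells were exposed 48 h in serum-free induction medium to eight half-log concentrations (top 100 uM, 0.5% DMSO). Transcript level was measured by TaqMan qRT-PCR, normalized to ACTB, GAPDH and POLR2A, and fitted bidirectionally versus DMSO.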

[13] = read-out: matrix metalloproteinase-10 (MMP10), MMP10 (gene 4319); assay: LTEA_HepaRG_MMP10: Life Technologies and Expression Analysis (LTEA) Assay for matrix metalloproteinase-10 (MMP10) using HepaRG (AID 2283517)
In short: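 Differentiated HepaRG cells in serum-free induction medium exposed 48 h in duplicate to 8-point half-log series up to 100 uM in 0.5% DMSO. mRNA quantified by qRT-PCR, normalised to ACTB, GAPDH, POLR2A; bidirectional fit versus DMSO.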

[14] = read-out: MYC, MYC (gene 4609); assay: LTEA_HepaRG_MYC: Life Technologies and Expression Analysis (LTEA) Assay for MYC using HepaRG (AID 2283518)
In short: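 Cells are thawed, plated and cultured 48 h, then treated for 48 h with test chemicals (eight half-log concentrations from 100 uM, 0.5% DMSO vehicle). RNA is isolated and MYC expression quantified by qRT-PCR against three housekeeping genes.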

[15] = read-out: matrix metalloproteinase-3 (MMP3), MMP3 (gene 4314); assay: LTEA_HepaRG_MMP3: Life Technologies and Expression Analysis (LTEA) Assay for matrix metalloproteinase-3 (MMP3) using HepaRG (AID 2283519)
In short: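 HepaRG cells (~100,000/well) in serum-free induction medium were dosed in duplicate for 48 h with an 8-point half-log series from 100 uM, 0.5% DMSO. MMP3 mRNA was quantified by Fluidigm TaqMan qRT-PCR, normalized to three housekeeping genes.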

[16] = read-out: Paternally Expressed 10 (PEG10), PEG10 (gene 23089); assay: LTEA_HepaRG_PEG10: Life Technologies and Expression Analysis (LTEA) Assay for Paternally Expressed 10 (PEG10) using HepaRG (AID 2283520)
In short: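 Differentiated HepaRG cells, plated 48 h then switched to serum-free induction medium, were exposed in duplicate for 48 h to eight half-log concentrations topping at 100 uM in 0.5% DMSO. PEG10 mRNA was quantified by TaqMan qRT-PCR, normalised to ACTB, GAPDH and POLR2A.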

[17] = read-out: Nuclear factor NF-kappa-B p105 subunit (Homo sapiens) (UniProt P19838); assay: LTEA_HepaRG_NFKB1: Life Technologies and Expression Analysis (LTEA) Assay for Nuclear Factor Kappa B Subunit 1 (NFKB1) using HepaRG (AID 2283521);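 further: TaqMan qRT-PCR transcript normalised to ACTB GAPDH and POLR2A housekeeping genes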
In short: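 Differentiated human HepaRG cells were exposed for 48 h in serum-free induction medium to eight concentrations (top 100 uM, half-log steps, 0.5% DMSO), in duplicate. NFKB1 mRNA was measured by TaqMan qRT-PCR, normalized to ACTB/GAPDH/POLR2A, and fitted bidirectionally against DMSO.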

[18] = read-out: Protein phosphatase 2A (PPP2R4), PTPA (gene 5524); assay: LTEA_HepaRG_PPP2R4: Life Technologies and Expression Analysis (LTEA) Assay for Protein phosphatase 2A (PPP2R4) using HepaRG (AID 2283522)
In short: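 Differentiated HepaRG cells in serum-free induction medium were exposed in duplicate for 48 h to eight concentrations, top 100 uM with half-log dilutions, in 0.5% DMSO. PPP2R4 mRNA was quantified by TaqMan qRT-PCR, normalized to ACTB, GAPDH and POLR2A.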

[19] = read-out: Phosphatase and tensin (PTEN), PTEN (gene 5728); assay: LTEA_HepaRG_PTEN: Life Technologies and Expression Analysis (LTEA) Assay for Phosphatase and tensin (PTEN) using HepaRG (AID 2283523)
In short: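 HepaRG cells, 48 h after plating, exposed in duplicate for 48 h in serum-free induction medium to 8 half-log concentrations up to 100 uM (0.5% DMSO). PTEN mRNA by qRT-PCR, normalized to ACTB, GAPDH, POLR2A; bidirectional fit versus DMSO.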

[20] = read-out: solute carrier (SLC22A1), SLC22A1 (gene 6580); assay: LTEA_HepaRG_SLC22A1: Life Technologies and Expression Analysis (LTEA) Assay for solute carrier (SLC22A1) using HepaRG (AID 2283524)
In short: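 Differentiated human HepaRG cells in serum-free induction medium, exposed 48 h in duplicate to 8-point half-log series from 100 µM top in 0.5% DMSO. SLC22A1 mRNA by TaqMan qRT-PCR normalized to ACTB, GAPDH, POLR2A; bidirectional fit versus DMSO.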

Measured: outcome

O=[N+]([O-])c1ccccc1[N+](=O)[O-]
inactive: all assays above
